Measurements published in patent US20250074946A1, “USE OF SE-DR AFFINITY PEPTIDE IN PREPARING DRUG FOR TREATING RHEUMATIC DISEASE” (HEBEI FITNESS BIOTECHNOLOGY CO., LTD., priority 2021, published 2025).

Legend:
[1] = tested on: CIA mice infected with chronic hepatitis B; test: CIA mice infected with chronic hepatitis B (Example 8); type: in vivo, mouse; details: for ALT level / Hepatitis B activation rate (Ratio of ALT > 100 U/L): at sacrifice, day 28; for Inflammation score and area under the time curve (AUC): peptides 50 μmol, Abatacept 100 μg, tail i.v. once every other day for 27 days
CIA mice = type: in vivo, mouse
mice = details: preclinical carcinogenesis safety experiment; cited from earlier work
[2] = inflammation score AUC, FNS007 0.2 mmol, abatacept 5 mg/kg, i.v. once every other day

abatacept
ALT level [1]: 103.59 ± 32.84 U/L | Hepatitis B activation rate (Ratio of ALT > 100 U/L) [1]: 50% | ALT level ([1]; listed as abatacept): significantly increased | Hepatitis B activation rate (Ratio of ALT > 100 U/L) ([1]; listed as abatacept): 50% | Observation on the daily condition of mice ([1]; during administration): obvious toxicity symptoms such as piloerection and reduced activity | Inflammation score and area under the time curve (AUC) [1]: 88.29 ± 48.40 | Inflammation score and area under the time curve (AUC) ([1]; listed as abatacept): significantly reduce the inflammation score | inflammation score during drug discontinuation compared with that at the time of drug discontinuation (CIA mice; 28 days of observation after stopping at day 28): significantly increased | Pathological score during 28 days of drug discontinuation (CIA mice; HE staining of ankle joint, score 0-4): 2.89 ± 0.80 | AUC, during drug discontinuation (day 29-56) (CIA mice; inflammation score AUC after stopping administration at day 28): 143.55 ± 77.82 | AUC, during administration (day 1-28) (CIA mice; [2]): 89.16 ± 51.44 | AUC, the first week during administration (CIA mice; [2]): 23.33 ± 9.17 | AUC, during administration (day 1-28) (CIA mice; inflammation score AUC, FNS007 0.2 mmol, abatacept 5 mg/kg, i.v. once every other day, listed as abatacept): 89.16 | Incidence of infection in mice (CIA mice; mouse, in vivo): 16.7% | Observation on the daily state of mice (CIA mice; mouse, in vivo): Piloerection, epistaxis, prostration, reduced activity, etc. | mice in the treatment group died of lymphoma (mice): about 50%

Like-named read-outs stand apart in the source and are kept apart here.
